Columns and labels:
Assay type in all cases: cell-based
[1] = target: T1, rat angiotensin 2 type 1 receptor (rat AT1aR) (Rattus norvegicus, UniProt P25095); assay: PathHunter β-arrestin-2 recruitment assay, rat AT1aR; conditions: PathHunter β-arrestin HEK293 cells
Protocol: (§1) The proximal event in β-arrestin function mediated by GPCRs is recruitment to receptors following ligand binding and receptor phosphorylation by GRK's. Thus, the measure of β-arrestin recruitment was used to determine ligand efficacy for β-arrestin function.
(§2) B-arrestin-2 recruitment to the human and rat angiotensin 2 type 1 receptor (human AT1R and rat AT1aR, respectively) was measured with the PathHunter™ β-arrestin assay (DiscoveRx Corporation, Fremont Calif.). Cells, plasmid(s), and detection reagent(s) were purchased from DiscoveRx, and assays were performed per manufacturer's instructions. Human AT1R and rat AT1aR were cloned into the pCMV-ProLink vector, verified by sequencing, and transfected into PathHunter β-arrestin HEK293 cells. Stably transfected clonal cell lines were selected with Hygromycin and G418. These clonal cell lines were used for all experiments.
(§3) For assays, 25,000 cells were seeded per well in 96-well microplates in volumes of 90 μL and allowed to grow overnight at 37° C. in 5% CO2. Peptides of the invention were dissolved in deionized water to a concentration of 1 mM. […] The microplates were then incubated at room temperature for 60 minutes, and then luminescence was measured using a NOVOstar microplate reader purchased from BMG Labtech. B-arrestin-2 recruitment to receptors was measured as relative luminescence intensity expressed in arbitrary units.

The chains behind the UniProt entries cited, without tags or fusion partners.
UniProt P25095, whole entry: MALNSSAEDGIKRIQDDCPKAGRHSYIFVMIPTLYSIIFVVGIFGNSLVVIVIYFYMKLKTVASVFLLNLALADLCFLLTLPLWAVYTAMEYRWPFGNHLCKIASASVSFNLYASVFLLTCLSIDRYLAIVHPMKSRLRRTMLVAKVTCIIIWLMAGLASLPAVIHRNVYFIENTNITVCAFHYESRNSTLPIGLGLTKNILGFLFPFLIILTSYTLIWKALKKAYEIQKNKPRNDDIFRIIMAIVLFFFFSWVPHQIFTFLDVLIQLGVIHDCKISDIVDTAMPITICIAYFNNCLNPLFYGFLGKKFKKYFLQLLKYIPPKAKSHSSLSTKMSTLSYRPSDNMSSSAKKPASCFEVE

[2] = target: T1, rat angiotensin 2 type 1 receptor (rat AT1aR); assay: IP1 accumulation assay (IP-One Tb), rat AT1aR; parameters: expressed in transfected cells; conditions: cells expressing rat AT1aR
[3] = target: human angiotensin 2 type 1 receptor (human AT1R) (Homo sapiens, UniProt P30556); assay: PathHunter β-arrestin-2 recruitment assay, human AT1R; conditions: PathHunter β-arrestin HEK293 cells
Protocol: as §1, §2, §3

CC[C@H](C)[C@H](NC(=O)[C@H](Cc1ccc(O)cc1)NC(=O)[C@@H](NC(=O)[C@H](CCCNC(=N)N)NC(=O)[C@H](C)NC)C(C)C)C(=O)N[C@@H](Cc1c[nH]cn1)C(=O)N1CCC[C@H]1C(=O)N[C@H](C)C(=O)O [SEQ ID NO:46, NMAla-Arg-Val-Tyr-Ile-His-Pro-D-Ala-OH]
rat AT1aR b-arrestin2 Max (%) [1]: 51.4%
EC50 ([1]; read-out: rat AT1aR b-arrestin2 EC50): 63 nM
rat AT1aR IP One EC50 (M) [2]: Inactive
human AT1R b-arrestin2 Max (%) [3]: 35.5%

— patent publication US8486885B2, “β-arrestin effectors and compositions and methods of use thereof” (Trevena, Inc., priority 2008, dated 2013)
